From patent publication US20050037476A1, “Modified Wee1, crystals of peptide: inhibitor complexes containing such modified Wee1, and methods of use thereof” (Pfizer Inc, priority 2003, published 2005) come the findings set out here.

Sequences of proteins named here, by UniProt entry; tags and fusion partners are left off. Residues count along the entry.
UniProt O14757, whole entry, species assumed: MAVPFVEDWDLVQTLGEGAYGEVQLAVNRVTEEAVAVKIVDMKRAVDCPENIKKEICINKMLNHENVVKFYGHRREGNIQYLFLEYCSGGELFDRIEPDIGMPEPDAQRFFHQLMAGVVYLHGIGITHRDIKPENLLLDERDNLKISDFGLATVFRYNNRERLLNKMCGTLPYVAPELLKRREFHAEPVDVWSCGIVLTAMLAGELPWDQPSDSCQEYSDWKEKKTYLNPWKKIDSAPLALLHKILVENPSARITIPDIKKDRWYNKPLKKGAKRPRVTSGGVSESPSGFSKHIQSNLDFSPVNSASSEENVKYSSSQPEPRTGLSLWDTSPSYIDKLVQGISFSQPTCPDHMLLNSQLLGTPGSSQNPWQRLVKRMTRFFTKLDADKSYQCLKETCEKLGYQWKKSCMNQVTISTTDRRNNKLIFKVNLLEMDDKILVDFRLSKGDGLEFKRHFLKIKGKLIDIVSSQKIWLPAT
UniProt P30291, 215-646 limits assumed: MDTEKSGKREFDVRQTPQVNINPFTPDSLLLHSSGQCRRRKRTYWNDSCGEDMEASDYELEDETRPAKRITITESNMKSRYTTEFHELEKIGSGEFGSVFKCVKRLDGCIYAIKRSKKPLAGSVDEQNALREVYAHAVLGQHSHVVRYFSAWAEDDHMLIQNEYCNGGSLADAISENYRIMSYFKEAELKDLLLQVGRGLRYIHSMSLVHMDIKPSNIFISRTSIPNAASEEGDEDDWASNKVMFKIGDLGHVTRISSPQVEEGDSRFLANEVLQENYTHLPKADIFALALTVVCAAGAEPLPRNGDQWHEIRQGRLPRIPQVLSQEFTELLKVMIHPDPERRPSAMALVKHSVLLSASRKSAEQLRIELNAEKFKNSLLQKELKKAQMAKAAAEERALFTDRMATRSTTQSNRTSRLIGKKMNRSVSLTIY

One test concerns the target Chk1 (Homo sapiens, UniProt O14757).
For test [1], the target named is human Wee1 kinase aa215-647 (Homo sapiens, UniProt P30291). The test is described as follows: biochemical.

A word on the IC50: it is the concentration that inhibits the measured activity by half. A higher IC50 goes with weaker potency in that assay. As for `O=C(O)CCn1c2ccc(O)cc2c2c3c(c(-c4ccccc4)cc21)C(=O)NC3=O` [3-(9-Hydroxy-1,3-dioxo-4-phenyl-2,3-dihydro-1H-pyrrolo[3,4-c]carbazol-6-yl)-propionic acid], the “selectivity for Wee1 over Chk1” value at Chk1 worked out at 18.6 fold. In test [1], this compound showed an IC50 of 22 nM.
